This data set is described as follows: Body weight and tolerability in tumor-bearing mice. The class given is in vivo. As to conditions: all treatments, once daily oral gavage, 3 weeks.

The structures appear in SMILES notation.

Our source for the body weight change and tolerability values is patent US20240374605A1, “METHODS OF TREATING CANCER” (Foghorn Therapeutics Inc., priority 2021, published 2024).

`CC1CN(c2cccc(-c3csc(NC(=O)CNC(=O)c4ccn(C(C)(C)C)c4)n3)n2)CC(C)O1` (centres unmarked): the body weight change entry is reported as “no body weight loss” and the tolerability entry is recorded as “well tolerated”.
